Data: patent US8389509B2, “Substituted pyrazole compounds” (Bristol-Myers Squibb Company, priority 2009, dated 2013)
pEC50, pIC50: −log10 of the molar value.

Chains of the proteins cited; added tags and fusions are not shown.
UniProt P21453, whole entry: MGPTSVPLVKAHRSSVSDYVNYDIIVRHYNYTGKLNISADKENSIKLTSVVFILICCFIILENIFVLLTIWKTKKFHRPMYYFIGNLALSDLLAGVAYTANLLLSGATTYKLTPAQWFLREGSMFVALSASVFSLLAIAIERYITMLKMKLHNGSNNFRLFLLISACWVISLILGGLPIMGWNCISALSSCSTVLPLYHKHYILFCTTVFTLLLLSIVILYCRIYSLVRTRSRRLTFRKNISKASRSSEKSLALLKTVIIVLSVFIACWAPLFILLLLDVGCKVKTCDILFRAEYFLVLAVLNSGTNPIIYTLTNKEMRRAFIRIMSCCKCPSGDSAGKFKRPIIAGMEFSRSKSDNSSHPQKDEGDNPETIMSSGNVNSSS
UniProt Q99500, whole entry: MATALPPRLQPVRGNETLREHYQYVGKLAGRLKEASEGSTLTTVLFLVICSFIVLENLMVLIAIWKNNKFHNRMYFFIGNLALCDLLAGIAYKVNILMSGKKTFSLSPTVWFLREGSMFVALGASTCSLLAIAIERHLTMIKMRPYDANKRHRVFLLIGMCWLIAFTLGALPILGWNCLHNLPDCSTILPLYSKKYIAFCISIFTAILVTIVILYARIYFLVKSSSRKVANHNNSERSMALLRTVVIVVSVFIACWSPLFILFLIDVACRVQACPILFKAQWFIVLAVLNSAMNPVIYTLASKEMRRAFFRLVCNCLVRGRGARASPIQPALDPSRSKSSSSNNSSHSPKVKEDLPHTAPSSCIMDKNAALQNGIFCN

What was measured:
S1P1 [1] = molecular target: T1, S1P1 (Homo sapiens, UniProt P21453); assay: S1P1 Binding Assay (33P-S1P competition, CHO membranes); conditions: read-out: S1P1 B IC50; membranes of CHO cells expressing human S1P1, 33P-S1P ligand
Method: Membranes were prepared from CHO cells expressing human S1P1. Cells were dissociated in buffer containing 20 mM HEPES, pH 7.5, 50 mM NaCl, 2 mM EDTA and Protease Inhibitor cocktail (Roche), and disrupted on ice using the Polytron homogenizer. The homogenate was centrifuged at 20,000 rpm (48,000 g) and the supernatant was discarded. The membrane pellets were resuspended in buffer containing 50 mM HEPES, pH 7.5, 100 mM NaCl, 1 mM MgCl2, 2 mM EDTA and stored in aliquots at −80° C. after protein concentration determination.
Membranes (2 μg/well) and 0.03 nM final concentration of ^33P-S1P ligand (1 mCi/ml, American Radiolabeled Chemicals) were added to the compound plates. Binding was performed for 60 min at room temperature, terminated by collecting the membranes onto GF/B filter plates, and radioactivity was measured by TOPCOUNT®. The competition data of the test compounds over a range of concentrations was plotted as percentage inhibition of radioligand specific binding. The IC50 is defined as the concentration of competing ligand needed to reduce specific binding by 50%.
Compounds of the present invention and Comparative Compound A were tested in the S1P1 binding assay described hereinabove and the results rounded to two digits, shown in Table A were obtained. […]

S1P3 = S1P3 (Homo sapiens, UniProt Q99500); assay: Method A: Receptor [35S] GTPγS Binding Assay, S1P3; conditions: read-out: GTPγS S1P3 EC50, EDG3-Gal5-bla HEK293T cell membranes
Method: (§1) Method A: Receptor [35S] GTPγS Binding Assays
(§2) Compounds were loaded in a 384 FALCON® v-bottom plate (0.5 μl/well in a 3-fold dilution). Membranes prepared from S1P1/CHO cells or EDG3-Gal5-bla HEK293T cells were added to the compound plate (40 μl/well, final protein 3 μg/well) with MULTIDROP®. [^35S]GTP (1250 Ci/mmol, Perkin Elmer) was diluted in assay buffer: 20 mM HEPES, pH7.5, 10 mM MgCl2, 150 mM NaCl, 1 mM EGTA, 1 mM DTT, 10 μM GDP, 0.1% fatty acid free BSA, and 10 μg/ml Saponin to 0.4 nM. 40 μl of the [^35S] GTP solution was added to the compound plate with a final concentration of 0.2 nM. The reaction was kept at room temperature for 45 min. At the end of incubation, all the mixtures in the compound plate were transferred to a 384 well FB filter plates via GPCR robot system. The filter plate was washed with water 4 times by using the modified manifold Embla plate washer and dried at 60° C. for 45 min. 30 μA of MicroScint 20 scintillation fluid was added to each well for counting at Packard TOPCOUNT®. EC50 is defined as the agonist concentration that corresponds to 50% of the Ymax (maximal response) obtained for each individual compound tested.
(§3) Compounds of the present invention and Comparative Compound A were tested in the Receptor [^35S] GTPγS Binding Assays (Method A) and Receptor [^35S] […]

S1P1 [2] = molecular target: T1, S1P1; assay: Method A: Receptor [35S] GTPγS Binding Assay, S1P1
Method: as §1, §2, §3

With `CCOc1cccc(-n2ncc(-c3nc(-c4ccc(CN5CC(C(=O)O)C5)cc4)no3)c2C(F)(F)F)n1` the pIC50 (S1P1 [1]) was 9.07, the pEC50 (S1P3) was 5.23 and the “GTPγS S1P3/S1P1 (Method A)” value (S1P1 [2]; ratio of S1P3 EC50 to S1P1 EC50, Method A) was 268. It also gave a pEC50 (S1P1 [2]; read-out: GTPγS S1P1 EC50, Method A, S1P1/CHO cell membranes) of 7.66.
